The numbers were not newly measured in patent US10954258B2, “STAT3 dimerization inhibitors” (H. LEE MOFFITT CANCER CENTER AND RESEARCH INSTITUTE, INC., priority 2012, dated 2021), which cites them from elsewhere.

Chains of the proteins cited; added tags and fusions are not shown.
UniProt P40763, whole entry, species assumed: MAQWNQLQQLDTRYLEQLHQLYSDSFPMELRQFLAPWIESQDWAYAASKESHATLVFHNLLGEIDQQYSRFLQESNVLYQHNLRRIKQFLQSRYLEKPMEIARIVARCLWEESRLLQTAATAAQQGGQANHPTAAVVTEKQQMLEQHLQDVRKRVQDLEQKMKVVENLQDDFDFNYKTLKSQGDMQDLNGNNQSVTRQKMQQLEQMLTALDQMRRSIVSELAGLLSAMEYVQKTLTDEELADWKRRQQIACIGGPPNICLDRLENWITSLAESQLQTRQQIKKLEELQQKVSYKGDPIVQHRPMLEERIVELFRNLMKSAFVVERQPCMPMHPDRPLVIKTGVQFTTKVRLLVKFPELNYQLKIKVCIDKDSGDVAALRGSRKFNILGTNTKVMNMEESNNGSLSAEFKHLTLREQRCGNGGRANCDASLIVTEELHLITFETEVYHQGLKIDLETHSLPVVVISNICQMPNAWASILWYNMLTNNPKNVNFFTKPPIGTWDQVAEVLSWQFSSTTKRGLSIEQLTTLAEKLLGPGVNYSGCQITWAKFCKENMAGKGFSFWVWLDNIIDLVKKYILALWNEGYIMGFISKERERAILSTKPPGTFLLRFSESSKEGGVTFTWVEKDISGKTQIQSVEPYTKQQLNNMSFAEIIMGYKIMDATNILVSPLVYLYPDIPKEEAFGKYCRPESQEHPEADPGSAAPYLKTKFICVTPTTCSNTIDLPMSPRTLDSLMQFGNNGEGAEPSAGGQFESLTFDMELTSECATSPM

The structures appear in SMILES notation.

The data set concerns the target STAT3 (Homo sapiens, UniProt P40763). The conditions noted are these: cited from earlier work.

Regarding `Cc1ccc(S(=O)(=O)OCC(=O)Nc2ccc(C(=O)O)c(O)c2)cc1` [Compound S3I-201], the “STAT3:STAT3 complex formation, STAT3 DNA-binding and transcriptional activities” value was “inhibited STAT3:STAT3 complex formation and STAT3 DNA-binding and transcriptional activities”.
